# Assay results published in PubChem BioAssay AID2101 (National Center for Advancing Translational Sciences (NCATS), 2009).
# Several values for one entry are separate records, joined by “and”; a condition that tells them apart may be missing. Identical values can stand only once. This is a selection; strong and weak results do not stand in their true shares. Results filed as inconclusive are left out. Activity calls are given as the source filed them. The call rests on the fitted dose curve; in most records, active means well fitted inhibition curve with a large enough effect; inconclusive means small, poorly fitted or top-dose-only effect, or effect the other way, or another doubt; inactive means no such curve, though single readings can be large or run the other way.
# Biological target: Lysosomal acid glucosylceramidase (Homo sapiens) (UniProt P04062)
# Assay: qHTS Assay for Inhibitors and Activators of N370S glucocerebrosidase as a Potential Chaperone Treatment of Gaucher Disease;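 further: 0% = full enzyme activity and -100% = no enzyme basal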
# Details: N370S GC spleen homogenate, 4MU-glucoside fluorescence
# Text: NIH Chemical Genomics Center [NCGC]
# NIH Molecular Libraries Probe Production Centers Network [MLPCN]
# Assay Submitter (PI): Wei Zheng
# Glucocerebrosidase (GC) catalyzes the hydrolysis of beta-glucocerebroside to glucose and ceramide in lysosomes. Mutations in the glucocerebrosidase gene result in Gaucher disease, an autosomal recessive lysosomal storage disorder. Many of the mutations encountered in patients with Gaucher disease are missense alterations that may cause misfolding, decreased stability and/or mistrafficking of this lysosomal protein. […] These inhibitors include iminosugar analogs and three non-iminosugar inhibitors identified from a previous HTS of 62,000 compounds with the wild type recombinant enzyme. However, the enhancement of enzyme activity by the chaperone action of an enzyme inhibitor must be balanced against the direct inhibition of the enzyme. An enzyme activator could also function as a chaperone by binding to the enzyme and helping to correct its misfolding and mistrafficking. While activators for GC have not yet been identified, they may have better therapeutic potential than inhibitors. Therefore the discovery and development of chemical activators may provide a new strategy for the chaperone therapy.
# We have optimized a new assay using N370S mutant GC derived from the spleen of a Gaucher patient. […] In addition, the MLPCN compound library has expanded, which increases the chance of finding new and better probes.
# NCGC Assay Protocol Summary:
# This is a fluorogenic enzyme assay with 4-methylumbelliferyl-beta-D-glucopyranoside as the substrate and N370S glucocerebrosidase from human spleen homogenate as the enzyme preparation. Upon the hydrolysis of this fluorogenic substrate, the resulting product, […] which can be detected by a standard fluorescence plate reader. Data were normalized to the controls for basal activity (without enzyme) and 100% activity (with enzyme). The AC50 values were determined from concentration-response data modeled with the standard Hill equation.
# Assay buffer: 50 mM citric acid (titrated with potassium phosphate to pH 5.0), 100 mM potassium chloride, 10 mM sodium chloride, 1 mM magnesium chloride, 0.01% Tween-20.
# 1536-well assay protocol:
# (1) Add 2 ul/well of spleen homogenate (27 ug final)
# (2) Add 23 nL compounds in DMSO solution. The final titration was 0.5 nM to 58 uM.
# (3) Add 2 ul of substrate (1 mM final)
# (4) Incubate at 37C for 40 min.
# (5) Add 2 ul stop solution (1M NaOH and 1M Glycine mixture, pH 10)
# (6) Detect the assay plate in a ViewLux plate reader (PerkinElmer) with Ex=365 nm and Em=440nm.
# Keywords: Glucocerebrosidase, beta-glucosidase, Gaucher Disease, pharmacological chaperone, chaperone therapy, high throughput screening, glucocerebrosidase inhibitor, MLSMR, MLSCN, NIH Roadmap, qHTS and NCGC
# [1] = at 59.4 µM (top of the series) unless noted
smiles,measurement,setting,value
CCCOP(=S)(Nc1nc(N)cc(=O)[nH]1)OCCC,"activity change, negative = inhibition",[1],inactive: -15.9%
CCOP(=O)(Nc1cccc2ccccc12)OCC,"activity change, negative = inhibition",[1],inactive: 29.7%
O=C(OC1CN2CCC1CC2)c1ccc(Cl)cc1 (centres undefined),"activity change, negative = inhibition",[1],inactive: 1.57%
CN(C(=O)Cc1ccc(Cl)c(Cl)c1)[C@@H]1CC[C@]2(CCCO2)C[C@H]1N1CCCC1,"activity change, negative = inhibition",[1],inactive: -35.4% and inactive: -3.88%
O=[As](O)(O)c1cccnc1,"activity change, negative = inhibition",[1],inactive: 0.371%
COc1cc(C(=O)NCC2(N3CCOCC3)CCCCC2)cc(Cl)c1OC(C)C,"activity change, negative = inhibition",[1],inactive: -12.9%
CS(=O)(=O)c1ccc(Cl)c(NC(=O)COC(=O)C(O)(c2ccccc2)c2ccccc2)c1,"activity change, negative = inhibition",[1],inactive: -8.61%
Cc1cccc(OCC(=O)OC2CN3CCC2CC3)c1 (centres undefined),"activity change, negative = inhibition",[1],inactive: 1.68%
O=[As](O)(c1cccc(O)c1)c1cccc(O)c1,"activity change, negative = inhibition",[1],inactive: 6.25%
NC(=O)Nc1ccc([As](=O)(O)O)cc1,"activity change, negative = inhibition",at 21.6 µM (top of the series),inactive: 5.53%
same,"activity change, negative = inhibition",at 59.4 µM (top of the series),inactive: 0.802% and inactive: 6.39%
N#CCCN(C(=O)COC(=O)C(O)(c1ccccc1)c1ccccc1)c1ccc(F)cc1,"activity change, negative = inhibition",[1],inactive: -26.4%
CCOP1(=S)c2c(C)nn(CCC#N)c2N=C(c2ccc(F)cc2)N1C (centres undefined),"activity change, negative = inhibition",[1],inactive: 8.61%
CN(C(=O)Cc1ccccc1)[C@@H]1CC[C@]2(CCCO2)C[C@H]1N1CCCC1,"activity change, negative = inhibition",[1],inactive: -3.91% and inactive: -4.74%
O=[N+]([O-])c1ccc2c(c1)nnn2O,"activity change, negative = inhibition",[1],inactive: 4.4%
O=P(Nc1nccs1)(Oc1ccccc1)Oc1ccccc1,"activity change, negative = inhibition",[1],inactive: 13.3%
O=P(Nc1nccs1)(c1ccccc1)c1nc2ccccc2s1 (centres undefined),"activity change, negative = inhibition",[1],inactive: 5.4%
CS(=O)(=O)c1cc([N+](=O)[O-])c2no[n+]([O-])c2c1,"activity change, negative = inhibition",[1],inactive: -19.4%
Nc1ccccc1[As](=O)(O)c1ccccc1,"activity change, negative = inhibition",[1],inactive: -0.577%
O=C(O)COc1ccc([As](=O)(O)O)cc1[N+](=O)[O-],"activity change, negative = inhibition",[1],inactive: -7.97%
O=P1(Nc2ncccn2)COc2ccccc2OC1,"activity change, negative = inhibition",[1],inactive: 10.1%
Nc1cccc([As](=O)(O)c2ccccc2)c1,"activity change, negative = inhibition",[1],inactive: 4.42%
O=[As](O)(c1cccs1)c1cccs1,"activity change, negative = inhibition",[1],inactive: 1.41%
Cc1ccc(OCC(=O)OC2CN3CCC2CC3)cc1 (centres undefined),"activity change, negative = inhibition",[1],inactive: -2.69%
O=P1(Nc2ccc(Br)cn2)COc2ccccc2OC1,"activity change, negative = inhibition",[1],inactive: 28.9%
Cc1nn(-c2ccccc2)c2c1P(=O)(N1CCOCC1)N(C)C(c1ccccc1)=N2 (centres undefined),"activity change, negative = inhibition",[1],inactive: -21.2%
CC1CCC(C(C)C)C(OP(=O)(Nc2ccccn2)c2ccccc2)C1 (centres undefined),"activity change, negative = inhibition",[1],inactive: 11.8%
CN(C)C1(CNC(=O)c2ccc(S(C)(=O)=O)cc2)CCCCC1,"activity change, negative = inhibition",[1],inactive: 11.3%
O=C(/C=C/c1ccccc1)OC1CN2CCC1CC2 (centres undefined),"activity change, negative = inhibition",[1],inactive: 20.5%
COc1ccccc1CNC(=O)COC(=O)C(O)(c1ccccc1)c1ccccc1,"activity change, negative = inhibition",[1],inactive: -23.3%
CC(C)/C=N\N=C(\N)N[N+](=O)[O-],"activity change, negative = inhibition",[1],inactive: -2.39%
CN(C(=O)Cc1ccc(Cl)c(Cl)c1)[C@@H]1CCCC[C@H]1N1CCCC1,"activity change, negative = inhibition",[1],inactive: -8.53% and inactive: -25.4% and inactive: -2.93%
O=[As](O)(c1ccccc1Br)c1ccccc1Br,"activity change, negative = inhibition",[1],inactive: 0.678%
O=P1(Nc2ccccn2)COc2ccccc2OC1,"activity change, negative = inhibition",[1],inactive: -3.93%
CCOP(=O)(NC(=NC(C)c1ccccc1)NC(C)c1ccccc1)OCC (centres undefined),"activity change, negative = inhibition",[1],inactive: -11.3%
CCOP(=O)(Nc1ccc(C)cn1)OCC,"activity change, negative = inhibition",[1],inactive: 2%
CN(CCCl)Cc1cc(Cl)c(NC2=NCCN2)c(Cl)c1,"activity change, negative = inhibition",[1],inactive: 1.71% and inactive: -1.22%
Clc1n[nH]nc1-c1nn[nH][15n]1,"activity change, negative = inhibition",[1],inactive: 3.96%
CC(C)(C)C(=O)NC(Sc1ncccn1)C(Cl)(Cl)Cl (centres undefined),"activity change, negative = inhibition",[1],inactive: 3.44%
